Laboratory results taken from PubChem BioAssay AID1979 (Broad Institute, 2009).
The list shows a part of the results, in another mix than the full data. Activity calls are given as the source filed them.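 How the source made its calls: active means growth inhibition above about 58% in most replicates (limit read from the data, passing the limit was not always enough); inconclusive means exactly half the replicates above a set limit; inactive means most replicates below a set limit.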

Assay: Candida growth reduction under fluconazole – CaCi-2 strain, Alamar Blue fluorescence, primary screen (AID 1979);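 further: all wells also contain fluconazole at 8 µg/ml as a sub-toxic cotreatment; 0% = median of DMSO wells and 100% = median of geldanamycin control wells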
Details: C. albicans CaCi-2 (fluconazole-resistant clinical isolate) + fluconazole, 48 h, stronger effect = higher value, concentration not given here
With `O=P(Nc1ccccn1)(c1cccc2ccccc12)c1cccc2ccccc12` the growth inhibition was active: 94.5%.
In the case of `CCC(C)N(CC(C)C)C(=S)SC(NC(C)=O)C(Cl)(Cl)Cl` (configuration not stated), the growth inhibition is reported as active: 98%.
